Laboratory results as given in patent US20050175505A1, “Personal monitor to detect exposure to toxic agents” (published 2005).

The chains behind the UniProt entries cited, without tags or fusion partners. Where a name states a change or a piece, a line headed by the entry shows the natural chain unless it says otherwise. Residues count along the entry.
UniProt P06276, 29-602 limits assumed: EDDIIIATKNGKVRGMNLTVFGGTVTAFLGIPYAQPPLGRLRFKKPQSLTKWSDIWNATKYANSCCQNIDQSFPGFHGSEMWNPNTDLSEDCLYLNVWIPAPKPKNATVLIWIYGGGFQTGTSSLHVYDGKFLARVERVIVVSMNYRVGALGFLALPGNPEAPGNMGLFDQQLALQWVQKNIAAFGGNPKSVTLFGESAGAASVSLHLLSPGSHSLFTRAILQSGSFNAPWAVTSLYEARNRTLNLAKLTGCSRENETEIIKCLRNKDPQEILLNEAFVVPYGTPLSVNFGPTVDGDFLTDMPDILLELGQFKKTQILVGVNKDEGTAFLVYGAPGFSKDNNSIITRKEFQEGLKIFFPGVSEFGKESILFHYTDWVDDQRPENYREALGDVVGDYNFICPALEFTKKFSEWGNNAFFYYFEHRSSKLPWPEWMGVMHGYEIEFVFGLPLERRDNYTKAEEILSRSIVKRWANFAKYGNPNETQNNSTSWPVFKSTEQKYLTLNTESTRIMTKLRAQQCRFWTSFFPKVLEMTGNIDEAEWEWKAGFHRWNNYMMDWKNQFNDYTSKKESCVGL
UniProt P22303: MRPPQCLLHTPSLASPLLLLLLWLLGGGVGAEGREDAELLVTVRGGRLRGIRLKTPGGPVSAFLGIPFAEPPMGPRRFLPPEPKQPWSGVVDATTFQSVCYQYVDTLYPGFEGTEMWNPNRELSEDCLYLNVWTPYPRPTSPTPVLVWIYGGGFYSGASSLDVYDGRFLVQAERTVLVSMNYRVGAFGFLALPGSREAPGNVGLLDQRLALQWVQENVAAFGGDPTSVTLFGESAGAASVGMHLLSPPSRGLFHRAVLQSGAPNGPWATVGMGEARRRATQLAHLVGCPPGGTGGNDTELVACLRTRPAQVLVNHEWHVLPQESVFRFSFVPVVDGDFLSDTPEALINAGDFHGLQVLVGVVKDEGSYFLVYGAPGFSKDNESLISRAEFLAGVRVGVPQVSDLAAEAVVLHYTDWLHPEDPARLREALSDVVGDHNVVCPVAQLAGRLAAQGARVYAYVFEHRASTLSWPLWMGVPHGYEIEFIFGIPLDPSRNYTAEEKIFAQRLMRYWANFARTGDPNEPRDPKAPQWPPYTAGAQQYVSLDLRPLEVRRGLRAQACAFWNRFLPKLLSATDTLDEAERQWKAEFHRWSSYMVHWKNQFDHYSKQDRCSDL

Key:
[1] = mean of four out of five volunteers showing an increase
[2] = biological target: T1, plasma cholinesterase (butyrylcholinesterase) (Homo sapiens, UniProt P06276); details: plasma samples treated with quinidine 20 μM; BTC vs AcTC substrate
[3] = biological target: T1, plasma cholinesterase (butyrylcholinesterase); details: cited from earlier work
[4] = biological target: T2, red blood cell cholinesterase (acetylcholinesterase) (Homo sapiens, UniProt P22303); details: cited from earlier work
[5] = biological target: T2, red blood cell cholinesterase (acetylcholinesterase); assay: Cholinesterase activity in RBC lysate with and without quinidine

SMILES	increase in interstitial fluid melatonin after ingestion (mean) [1]	inhibitory effect on plasma cholinesterase activity [2]	inhibition of plasma cholinesterase activity (general statement) [3]	inhibition of cholinesterase activity in red blood cells (general statement) [4]	decrease in cholinesterase activity in RBC lysate [5]
COc1ccc2[nH]cc(CCNC(C)=O)c2c1	9.0 ± 6.2 pg/mL				
C=C[C@H]1C[N@@]2CC[C@H]1C[C@@H]2[C@@H](O)c1ccnc2ccc(OC)cc12		inhibitory effect was observed only when BTC was used	specifically inhibits plasma cholinesterase activity	does not inhibit	only a minute decrease
